# According to patent publication US9884844B2 (priority 2012, dated 2018):
# Protein sequences, listed by entry. Tags and fused reporters are not part of them. Lines headed by an entry give the natural chain unless they say otherwise; changes in a name come on top.
# UniProt P41146: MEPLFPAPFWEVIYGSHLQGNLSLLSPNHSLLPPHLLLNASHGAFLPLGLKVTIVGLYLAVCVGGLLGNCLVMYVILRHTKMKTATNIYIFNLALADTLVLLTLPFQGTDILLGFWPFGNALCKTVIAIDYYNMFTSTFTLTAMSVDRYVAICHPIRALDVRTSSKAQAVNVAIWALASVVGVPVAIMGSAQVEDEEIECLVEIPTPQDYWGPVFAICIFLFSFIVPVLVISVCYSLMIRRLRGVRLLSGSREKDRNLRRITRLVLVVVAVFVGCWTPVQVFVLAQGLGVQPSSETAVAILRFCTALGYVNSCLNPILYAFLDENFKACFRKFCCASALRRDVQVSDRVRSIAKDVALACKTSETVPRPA
# Molecular target: human NOP (Homo sapiens, UniProt P41146)
# Assay: cAMP assay on cells expressing human NOP (NOP assay)
# Settings: read-out: NOP EC50, HEK cells expressing human NOP
row,Compound,EC50 [nM]
1,CN1CC2(CC1=O)C(=O)N(C1CCN([C@H]3c4cccc5cccc(c45)[C@@H]3O)CC1)c1ccccc12 (stereo partly drawn),< 100
2,CNC(=O)CC1C(=O)N(C2CCN(CCC(Oc3cc(OC)ccc3Cl)C(C)C)CC2)c2ccccc21 (stereo not drawn),< 100
3,"CNC(=O)CC1C(=O)N(C2CCN(C3Cc4cccc5ccc(OC)c3c45)CC2)c2ccccc21 (single isomer, unassigned)",< 100
4,CNC(=O)CC1(O)C(=O)N(C2CCN(C3Cc4cccc5c4C3N(C)CC5)CC2)c2ccccc21 (stereo not drawn),> 5000
5,Cn1ncnc1CC1(C)C(=O)N(C2CCN(C3c4cccc5cccc(c45)C3O)CC2)c2ccccc21 (stereo not drawn),> 5000
6,CNC(=O)CC1C(=O)N(C2CCN(C3c4cccc5cccc(c45)[C@@H]3C)CC2)c2ccccc21 (stereo partly drawn),< 100
7,CNC(=O)C[C@@]1(C)C(=O)N(C2CCN([C@H]3Cc4cccc5cccc3c45)CC2)c2ccccc21,< 100
8,CNC(=O)C[C@]1(O)C(=O)N(C2CCN([C@@H]3Cc4cccc5cccc3c45)CC2)c2ccccc21,< 100
9,"NC[C@H](O)CC1(O)C(=O)N(C2CCN(C3Cc4cccc5cccc3c45)CC2)c2ccccc21 (single isomer, unassigned)",< 100
10,COc1ccc(Cl)c(OC(CCN2CCC(N3C(=O)C(CC(=O)N(C)C)c4ccccc43)CC2)C(C)C)c1 (stereo not drawn),100 to 1000
11,CNC(=O)CC1(O)C(=O)N(C2CCN([C@H]3c4ccccc4CC[C@@H]3O)CC2)c2ccccc21 (stereo partly drawn),100 to 1000
12,CNC(=O)C[C@]1(C)C(=O)N(C2CCN([C@H]3c4cccc5cccc(c45)C3(F)F)CC2)c2ccccc21,100 to 1000
13,NC(=O)C1CC12C(=O)N(C1CCN(C3Cc4cccc5cccc3c45)CC1)c1ccccc12 (stereo not drawn),< 100
14,"CNC(=O)C[C@@]1(C)C(=O)N(C2CCN([C@@]3(C)Cc4cccc5cccc3c45)CC2)c2ccccc21 (single isomer, unassigned)",< 100
15,NCC1(O)C(=O)N(C2CCN(C3Cc4cccc5cccc3c45)CC2)c2ccccc21 (stereo not drawn),> 5000
16,CNC(=O)CC1(C)C(=O)N(C2CCN([C@H]3c4cccc5cccc(c45)[C@]3(C)O)CC2)c2ccccc21 (stereo partly drawn),100 to 1000
17,CC1(CC(O)CN)C(=O)N(C2CCN(C3Cc4cccc5cccc3c45)CC2)c2ccccc21 (stereo not drawn),100 to 1000
18,CNC(=O)C[C@]1(O)C(=O)N(C2CCN([C@H]3c4cccc5cccc(c45)[C@@H]3O)CC2)c2ccccc21,< 100
